The target of assay [1] is soluble human BACE1 catalytic domain (Homo sapiens (Human), UniProt P56817). In words: BACE1 HTRF FRET Assay. The note with it: read-out: BACE 1 Ki; Ki calculated from IC50 using the Cheng-Prusoff equation; QSY7-APPswe-Eu substrate, pH 5.0. The text has this: Na^+-Acetate pH 5.0; 1% Brij-35; Glycerol; Dimethyl Sulfoxide (DMSO); Recombinant human soluble BACE1 catalytic domain (>95% pure); APP Swedish mutant peptide substrate (QSY7-APP^swe-Eu): QSY7-EISEVNLDAEFC-Europium-amide.
A homogeneous time-resolved FRET assay can be used to determine IC50 values for inhibitors of the soluble human BACE1 catalytic domain. This assay monitors the increase of 620 nm fluorescence that resulted from BACE1 cleavage of an APPswedish APP^swe mutant peptide FRET substrate (QSY7-EISEVNLDAEFC-Europium-amide). This substrate contains an N-terminal QSY7 moiety that serves as a quencher of the C-terminal Europium fluorophore (620 nm Em). In the absence of enzyme activity, 620 nm fluorescence is low in the assay and increased linearly over 3 hours in the presence of uninhibited BACE1 enzyme Inhibition of BACE1 cleavage of the QSY7-APP^swe-Eu substrate by inhibitors is manifested as a suppression of 620 nm fluorescence.
Varying concentrations of inhibitors at 3× the final desired concentration in a volume of 10 ul are preincubated with purified human BACE1 catalytic domain (3 nM in 10 μl) for 30 minutes at 30° C. in reaction buffer containing 20 mM Na-Acetate pH 5.0, 10% glycerol, 0.1% Brij-35 and 7.5% DSMO. Reactions are initiated by addition of 10 μl of 600 nM QSY7-APP^swe-Eu substrate (200 nM final) to give a final reaction volume of 30 μl in a 384 well Nunc HTRF plate. The reactions are incubated at 30° C. for 1.5 hours. The 620 nm fluorescence is then read on a Rubystar HTRF plate reader (BMG Labtechnologies) using a 50 millisecond delay followed by a 400 millisecond acquisition time window Inhibitor IC50 values are derived from non-linear regression analysis of concentration response curves. Ki values are then calculated from IC50 values using the Cheng-Prusoff equation using a previously determined […] of 8 μM for the QSY7-APP^swe-Eu substrate at BACE1.

Amino acid sequences for entries named in this document (tags omitted). Residues count along the entry.
UniProt P56817, 75-416 limits assumed: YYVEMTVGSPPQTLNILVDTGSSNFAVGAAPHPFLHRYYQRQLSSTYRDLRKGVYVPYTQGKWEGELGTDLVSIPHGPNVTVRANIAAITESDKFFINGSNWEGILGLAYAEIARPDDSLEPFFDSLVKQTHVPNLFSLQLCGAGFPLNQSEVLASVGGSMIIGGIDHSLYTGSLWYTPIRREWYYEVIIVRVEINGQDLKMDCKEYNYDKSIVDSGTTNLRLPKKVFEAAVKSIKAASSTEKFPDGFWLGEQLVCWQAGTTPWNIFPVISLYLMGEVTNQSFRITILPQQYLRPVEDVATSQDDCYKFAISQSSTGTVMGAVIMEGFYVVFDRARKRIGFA
UniProt Q9Y5Z0, 63-518 limits assumed: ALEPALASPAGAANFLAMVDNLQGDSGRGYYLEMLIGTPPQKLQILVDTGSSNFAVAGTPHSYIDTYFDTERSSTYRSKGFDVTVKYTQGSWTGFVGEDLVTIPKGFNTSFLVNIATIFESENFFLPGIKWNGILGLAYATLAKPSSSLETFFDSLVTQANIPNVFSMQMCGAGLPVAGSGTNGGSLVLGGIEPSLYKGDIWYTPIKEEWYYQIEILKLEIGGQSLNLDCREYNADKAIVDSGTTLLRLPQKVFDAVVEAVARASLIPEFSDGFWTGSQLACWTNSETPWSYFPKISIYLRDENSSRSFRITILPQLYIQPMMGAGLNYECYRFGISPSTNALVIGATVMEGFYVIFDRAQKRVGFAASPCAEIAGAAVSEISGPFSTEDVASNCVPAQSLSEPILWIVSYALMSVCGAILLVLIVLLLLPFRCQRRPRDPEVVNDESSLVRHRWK

Assay [2] has as its target purified human autoBACE-2 (Homo sapiens, UniProt Q9Y5Z0). The assay is described as follows: BACE-2 Assay (BACE-HTRF assay). The class given is biochemical. Conditions: read-out: BACE 2 Ki; Ki calculated from IC50 using the Cheng-Prusoff equation; QSY7-EISEVNLDAEFC-Eu-amide substrate, pH 5.0.

The values below come from patent publication US9422255B2, “S-imino-S-oxo-iminothiazine compounds as BACE inhibitors, compositions, and their use” (Merck Sharp & Dohme Corp., priority 2013, dated 2016).

As to `CN=[S@]1(=O)C[C@@](C)(c2cc(NC(=O)COC)ccc2F)NC(=N)C1(C)C`, the inhibition constant Ki in assay [1] was 167 nM; in assay [2] it was 10 nM.
Regarding `CC1(C)C(=N)N[C@](C)(c2cc(NC(=O)c3ccc(Cl)cn3)ccc2F)C[S@]1(=O)=NCCF`, the Ki in assay [1] was 3 nM; in assay [2], 2 nM.
For `CN=[S@@]1(=O)C[C@@](C)(c2cc(NC(=O)COC)ccc2F)NC(=N)C1(C)C` the same measures were 228 nM and 36 nM.
For `CN=[S@]1(=O)C[C@@](C)(c2cc(NC(=O)c3cnc(OC)cn3)ccc2F)NC(=N)C1(C)C` the same measures were 6 nM and 12 nM.
For `CN=[S@]1(=O)C[C@@](C)(c2cc(NC(=O)c3ccc(Cl)cn3)ccc2F)NC(=N)C1(C)C` the same measures were 8 nM and 3 nM.
For the molecule `COCCN=[S@]1(=O)C[C@@](C)(c2cc(NC(=O)c3ccc(Cl)cn3)ccc2F)NC(=N)C1(C)C`, the Ki was 3 nM in assay [1] and 1 nM in assay [2].
The corresponding values for `CCN=[S@@]1(=O)C[C@@](C)(c2cc(NC(=O)c3ccc(C#N)cn3)ccc2F)NC(=N)C1(C)C` are 4 nM and 5 nM.
The corresponding values for `CN=[S@@]1(=O)C[C@@](C)(c2cc(NC(=O)c3cnc(OC)cn3)ccc2F)NC(=N)C1(C)C` are 14 nM and 32 nM.
The corresponding values for `CCN=[S@@]1(=O)C[C@@](C)(c2cc(NC(=O)c3ccc(F)cn3)ccc2F)NC(=N)C1(C)C` are 17 nM and 3 nM.
As to `COCCN=[S@@]1(=O)C[C@@](C)(c2cc(NC(=O)c3ccc(Cl)cn3)ccc2F)NC(=N)C1(C)C`, the results for the Ki in assay [1] and in assay [2] were 4 nM and 2 nM, respectively.
The corresponding values for `CN=[S@@]1(=O)C[C@@](C)(c2cc(NC(=O)c3ccc(Cl)cn3)ccc2F)NC(=N)C1(C)C` are 3 nM and 1 nM.
The corresponding values for `CC1(C)C(=N)N[C@](C)(c2cc(NC(=O)c3ccc(Cl)cn3)ccc2F)C[S@@]1(=O)=NCC1CC1` are 4 nM and 3 nM.
Regarding `CCN=[S@]1(=O)C[C@@](C)(c2cc(NC(=O)c3ccc(Cl)cn3)ccc2F)NC(=N)C1(C)C`, the Ki was 7 nM in assay [1] and 5 nM in assay [2].
Take `CC1(C)C(=N)N[C@](C)(c2cc(NC(=O)c3ccc(Cl)cn3)ccc2F)C[S@@]1(=O)=NCCF`: the Ki in assay [1] was 3 nM; in assay [2], 1 nM.
For `CCN=[S@@]1(=O)C[C@@](C)(c2cc(NC(=O)c3ccc(Cl)cn3)ccc2F)NC(=N)C1(C)C` the same measures were 4 nM and 1 nM.
In the case of `CC1(C)C(=N)N[C@](C)(c2cc(NC(=O)c3ccc(Cl)cn3)ccc2F)C[S@]1(=O)=NCC1CC1`, the Ki in assay [1] was 3 nM; in assay [2], 1 nM.
For `CN=[S@@]1(=O)C[C@@](C)(c2cc(NC(=O)c3ccc(OC)cn3)ccc2F)NC(=N)C1(C)C` the same measures were 11 nM and 5 nM.
For `CN=[S@]1(=O)C[C@@](C)(c2cc(NC(=O)c3ccc(F)cn3)ccc2F)NC(=N)C1(C)C` the same measures were 21 nM and 6 nM.
The corresponding values for `CN=[S@@]1(=O)C[C@@](C)(c2cc(NC(=O)c3ccc(F)cn3)ccc2F)NC(=N)C1(C)C` are 10 nM and 2 nM.
